Here are results for three compounds from patent US7166618B2, “Nitrosated and nitrosylated cyclooxygenase-2 inhibitors, compositions and methods of use” (NitroMed, Inc., priority 1999, dated 2007).

The test deals with T1, ovine COX-2 (Ovis aries, UniProt P79208).
T1 sequence (P79208 17-603): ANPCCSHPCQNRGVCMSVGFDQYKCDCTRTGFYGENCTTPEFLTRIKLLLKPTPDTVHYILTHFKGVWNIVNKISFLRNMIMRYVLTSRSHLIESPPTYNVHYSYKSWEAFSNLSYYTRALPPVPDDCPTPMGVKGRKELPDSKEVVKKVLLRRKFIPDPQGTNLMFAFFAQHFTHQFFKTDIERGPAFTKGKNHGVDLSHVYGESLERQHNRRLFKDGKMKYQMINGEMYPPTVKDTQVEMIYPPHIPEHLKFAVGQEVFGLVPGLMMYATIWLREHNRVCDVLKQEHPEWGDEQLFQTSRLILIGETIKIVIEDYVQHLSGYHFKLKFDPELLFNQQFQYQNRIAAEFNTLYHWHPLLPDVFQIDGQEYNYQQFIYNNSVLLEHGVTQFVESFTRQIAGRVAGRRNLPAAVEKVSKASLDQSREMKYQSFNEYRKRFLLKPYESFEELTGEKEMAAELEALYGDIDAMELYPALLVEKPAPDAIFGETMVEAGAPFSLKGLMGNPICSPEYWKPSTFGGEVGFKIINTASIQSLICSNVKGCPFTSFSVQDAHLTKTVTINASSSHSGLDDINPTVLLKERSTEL
The test can be described thus: biochemical.

By IC50 is commonly meant the concentration that inhibits the measured activity by half. In turn, `NS(=O)(=O)c1ccc(-n2nc(CO)cc2-c2ccc(Cl)cc2)cc1` [Example 1a, 4-(5-(4-Chlorophenyl)-3-(hydroxymethyl)-3-hydropyrazolyl) benzenesulfonamide, reference compound] gave an IC50 of 3.3 µM. The same measure for `NS(=O)(=O)c1ccc(-c2c(-c3ccccc3)noc2CO)cc1` [Example 2a, 4-(5-(Hydroxymethyl)-3-phenylisoxazol-4-yl)benzenesulfonamide, reference compound]: 24 µM; for `Cc1onc(-c2ccccc2)c1-c1ccc(S(N)(=O)=O)cc1` [Example 3e, 4-(5-(Methyl)-3-phenylisoxazol-4-yl)benzenesulfonamide, reference compound]: 0.006 µM.
